Consider one compound from PMC2864113 (Bioorganic & medicinal chemistry letters, 2010).

Protein sequences, listed by entry. Tags and fused reporters are not part of them. Residues count along the entry.
UniProt O42275, 24-633: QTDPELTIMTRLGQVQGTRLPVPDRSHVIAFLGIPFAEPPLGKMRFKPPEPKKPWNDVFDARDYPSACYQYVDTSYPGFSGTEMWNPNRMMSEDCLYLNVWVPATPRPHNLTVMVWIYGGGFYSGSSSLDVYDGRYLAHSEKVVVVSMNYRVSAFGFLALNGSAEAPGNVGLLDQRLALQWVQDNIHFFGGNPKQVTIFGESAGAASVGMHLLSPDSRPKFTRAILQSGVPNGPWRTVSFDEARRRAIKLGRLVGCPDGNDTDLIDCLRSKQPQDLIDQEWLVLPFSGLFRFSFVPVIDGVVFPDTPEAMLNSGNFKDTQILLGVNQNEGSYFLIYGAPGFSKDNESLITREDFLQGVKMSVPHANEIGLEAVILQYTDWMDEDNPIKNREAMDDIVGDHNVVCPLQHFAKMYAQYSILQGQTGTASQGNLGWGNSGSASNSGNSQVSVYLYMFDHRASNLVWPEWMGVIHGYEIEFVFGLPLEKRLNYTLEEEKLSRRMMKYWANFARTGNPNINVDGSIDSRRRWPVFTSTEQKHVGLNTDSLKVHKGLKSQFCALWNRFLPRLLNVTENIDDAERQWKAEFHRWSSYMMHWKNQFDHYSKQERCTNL

The target of the assay is AChE (electric eel, EeAChE) (Electrophorus electricus, UniProt O42275). Type of assay: biochemical. The note with it: read-out: IC50 against AChE.

Each structure is given as a SMILES string.

In general, IC50 refers to the point on the concentration scale where inhibition reaches its midpoint. In the case of `CC(C)Cc1ccc(C(C)C(=O)OCC[Si](C)(C)C)cc1` (stereo not shown) [Compound 10], the IC50 stood at 25.7 ± 4.9 µM.
